In patent US11857584B2, “Oncolytic virus growth method and antitumor agent” (KABUSHIKI KAISHA YAKULT HONSHA, priority 2017, dated 2024):

Experiments:
[1] = system: oxaliplatin-resistant colon cancer cell line (WiDr); conditions: oxaliplatin 50 μM, CVA11 MOI=0.01, culturing 72 hours
[2] = system: oxaliplatin-resistant colon cancer cell line (WiDr); conditions: CVB3 MOI 0, 0.001, 0.01 or 0.1, oxaliplatin 0, 0.5, 1 or 5 μM

O=C1[O][Pt]2([NH][C@@H]3CCCC[C@H]3[NH]2)[O]C1=O [oxaliplatin]
antitumor effect (cytotoxicity), crystal violet method [1]: No antitumor effect was observed
antitumor effect (cytotoxicity), crystal violet method [2]: No antitumor effect was observed

Where two headings read alike, the source gives them in different places.
